Molecular target: stapled Myc_B1 peptide
Assay: BLI; full binding curves: biotinylated peptide on streptavidin biosensors, WDR5 in solution (10, 2, 0.4, 0.08 μM for Myc-site peptides; 2.5, 0.5, 0.1, 0.2 μM as printed for stapled Myc_B1); KD the average from four concentrations, 1:1 kinetic model; kinetic buffer, RT

- Kd: 39 nM
- fold improvement of KD over the unstapled parent peptide: 6 fold
Substance: truncated WDR5 (amino acids 22–334) (from UniProt P61964 22-334) (domain or fragment)

— paper PMC12723675, “Evaluating BindCraft for Generative Design of High-Affinity Peptides” (ACS Chemical Biology, 2025)
